Measured values: ChEMBL document CHEMBL1149259, “Potent N-(1,3-thiazol-2-yl)pyridin-2-amine vascular endothelial growth factor receptor tyrosine kinase inhibitors with excellent pharmacokinetics and low affinity for the hERG ion channel” (J Med Chem, 2004)

How the values were obtained:
[1] = species on record: Homo sapiens; experiment: Selectivity ratio of IC50 for Flt3 to IC50 for KDR
[2] = species on record: Homo sapiens; experiment: Selectivity ratio of IC50 for EGFR to IC50 for KDR
[3] = species on record: Homo sapiens; experiment: Selectivity ratio of IC50 for InsulinR to IC50 for KDR
[4] = species on record: Homo sapiens; experiment: Selectivity ratio of IC50 for Lck to IC50 for KDR
[5] = species on record: Homo sapiens; experiment: Selectivity ratio of IC50 for FynT to IC50 for KDR
[6] = species on record: Homo sapiens; experiment: Selectivity ratio of IC50 for CDK4 to IC50 for KDR
[7] = species on record: Homo sapiens; experiment: Selectivity ratio of IC50 for CDK2 to IC50 for KDR

What does the source list for `CNC(=O)N1CCN(Cc2ccnc(Nc3ncc(C#N)s3)c2)CC1`?
Ratio IC50 [1]: 28; Ratio IC50 [2]: > 1600; Ratio IC50 [3]: 560; Ratio IC50 [4]: 950; Ratio IC50 [5]: 850; Ratio IC50 [6]: 61; Ratio IC50 [7]: 328
